The test concerns the target Transporter (Rattus norvegicus, UniProt Q63380). Nature of the test: Inhibition of NET in rat synaptosomal membrane. In kind it is cell membranes.

By UniProt entry, the sequences of proteins in these tests, tags left out.
UniProt Q63380, whole entry: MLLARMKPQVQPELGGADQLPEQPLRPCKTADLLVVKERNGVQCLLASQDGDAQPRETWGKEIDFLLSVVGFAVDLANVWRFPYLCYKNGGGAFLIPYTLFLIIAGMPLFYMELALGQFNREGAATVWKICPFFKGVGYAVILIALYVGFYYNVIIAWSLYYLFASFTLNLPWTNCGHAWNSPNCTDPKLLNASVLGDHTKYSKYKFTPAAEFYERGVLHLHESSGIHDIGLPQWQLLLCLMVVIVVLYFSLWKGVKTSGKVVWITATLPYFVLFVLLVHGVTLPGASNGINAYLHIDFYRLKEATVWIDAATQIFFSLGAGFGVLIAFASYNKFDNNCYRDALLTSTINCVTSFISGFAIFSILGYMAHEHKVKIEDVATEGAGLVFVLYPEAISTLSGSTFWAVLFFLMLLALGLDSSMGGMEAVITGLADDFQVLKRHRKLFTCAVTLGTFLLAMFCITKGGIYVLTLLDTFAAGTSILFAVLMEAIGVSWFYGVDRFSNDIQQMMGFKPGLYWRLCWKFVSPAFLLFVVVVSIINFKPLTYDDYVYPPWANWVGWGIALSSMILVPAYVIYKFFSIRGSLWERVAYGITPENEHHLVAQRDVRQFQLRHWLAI

The term Ki denotes the equilibrium dissociation constant of an inhibitor or competing ligand from its target. A lower Ki goes with higher affinity. Consider `CN1Cc2c(N)cccc2C(c2ccccc2)C1` (racemic) [NOMIFENSINE], for which the affinity corresponds to a Ki of 4 nM.
